{"source": "paper PMC6559718", "about": "(Journal of biomolecular screening, 2016)", "system": "four hANT yeast strains", "conditions": "fermentable YPD medium", "data": [{"compound": "O=C(Nc1cc(C(F)(F)F)cc(C(F)(F)F)c1)c1cc(Cl)ccc1O", "note": "[IMD 0354]", "values": [{"measurement": "cytotoxic effect in glucose-containing medium", "result": "exhibited cytotoxic effect in certain strains"}]}]}
